These results are taken from ChEMBL document CHEMBL1268814, “Synthesis and biological evaluation of bivalent ligands for the cannabinoid 1 receptor” (J Med Chem, 2010).

Chains of the proteins cited; added tags and fusions are not shown.
UniProt P34972, whole entry: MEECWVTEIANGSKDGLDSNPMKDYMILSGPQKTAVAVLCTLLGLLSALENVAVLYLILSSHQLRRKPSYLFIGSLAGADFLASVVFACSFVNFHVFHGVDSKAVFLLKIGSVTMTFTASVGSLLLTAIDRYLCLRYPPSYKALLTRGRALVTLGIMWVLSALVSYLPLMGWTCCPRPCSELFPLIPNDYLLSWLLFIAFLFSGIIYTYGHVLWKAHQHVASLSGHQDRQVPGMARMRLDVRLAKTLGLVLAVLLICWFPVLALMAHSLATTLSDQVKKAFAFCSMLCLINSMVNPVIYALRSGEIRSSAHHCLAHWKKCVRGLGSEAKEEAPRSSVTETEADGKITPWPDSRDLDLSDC

The assay concerns the target Cannabinoid receptor 2 (Homo sapiens, UniProt P34972). The assay can be described thus: Displacement of [3H]CP55940 from human CB2 receptor expressed in CHOK1 cells. In kind it is cell-based, CHO-K1.

Each structure is given as a SMILES string.

`Cc1c(C(=O)NCCCCCCCN(C)CCCCCCCNC(=O)c2nn(-c3ccc(Cl)cc3Cl)c(-c3ccc(Cl)cc3)c2C)nn(-c2ccc(Cl)cc2Cl)c1-c1ccc(Cl)cc1` showed a Ki of 683 nM.
